{"sequences": {"note": "By UniProt entry, the sequences of proteins in these tests, tags left out. Residues count along the entry.", "UniProt P55055, 222-460": "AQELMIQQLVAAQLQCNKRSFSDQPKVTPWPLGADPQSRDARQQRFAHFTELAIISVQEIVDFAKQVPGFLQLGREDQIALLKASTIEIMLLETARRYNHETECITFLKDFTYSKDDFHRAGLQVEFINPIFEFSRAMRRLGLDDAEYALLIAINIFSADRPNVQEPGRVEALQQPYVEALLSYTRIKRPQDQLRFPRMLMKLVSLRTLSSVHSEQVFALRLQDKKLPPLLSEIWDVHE"}, "source": "patent US9073931B2", "about": "“Liver X receptor modulators” (Vitae Pharmaceuticals, Inc., priority 2012, dated 2015)", "target": "LXR β LBD protein (Homo sapiens (Human), UniProt P55055)", "assay": "LXR β radioligand binding assay (SPA, [3H]T0901317 competition)", "conditions": "competition with 15 nM [3H]T0901317, LXRβ LBD"}
{"molecule": "CCC(O)c1cnc(N2CCn3c(nc4cc(CO)c(S(C)(=O)=O)cc43)[C@H]2C(C)C)nc1C(F)(F)F", "note": "(single isomer, unassigned) [Compound E10c, 1-(2-(8-(hydroxymethyl)-1-isopropyl-7-(methylsulfonyl)-3,4-dihydrobenzo[4,5]imidazo[1,2-a]pyrazin-2(1H)-yl)-4-(trifluoromethyl)pyrimidin-5-yl)propan-1-ol]", "values": [{"measurement": "Ki", "value": 7, "unit": "nM"}]}
{"molecule": "CC(O)c1cnc(N2CCn3c(nc4cc(CO)c(S(C)(=O)=O)cc43)[C@H]2C(C)C)nc1C(F)(F)F", "note": "(single isomer, unassigned) [Compound E8c, 1-(2-(8-(hydroxymethyl)-1-isopropyl-7-(methylsulfonyl)-3,4-dihydrobenzo[4,5]imidazo[1,2-a]pyrazin-2(1H)-yl)-4-(trifluoromethyl)pyrimidin-5-yl)ethanol]", "values": [{"measurement": "Ki", "value": 9, "unit": "nM"}]}
{"molecule": "CC(O)c1cnc(N2CCn3c(nc4cc(CO)c(S(C)(=O)=O)cc43)[C@@H]2C(C)C)nc1C(F)(F)F", "note": "(single isomer, unassigned) [Compound E8d, 1-(2-(8-(hydroxymethyl)-1-isopropyl-7-(methylsulfonyl)-3,4-dihydrobenzo[4,5]imidazo[1,2-a]pyrazin-2(1H)-yl)-4-(trifluoromethyl)pyrimidin-5-yl)ethanol]", "values": [{"measurement": "Ki", "value": 1330, "unit": "nM"}]}
{"molecule": "CC(O)c1cnc(N2CCn3c(nc4cc(CO)c(S(C)(=O)=O)cc43)[C@H]2C(C)C)nc1C(F)(F)F", "note": "(single isomer, unassigned) [Compound E8b, 1-(2-(8-(hydroxymethyl)-1-isopropyl-7-(methylsulfonyl)-3,4-dihydrobenzo[4,5]imidazo[1,2-a]pyrazin-2(1H)-yl)-4-(trifluoromethyl)pyrimidin-5-yl)ethanol]", "values": [{"measurement": "Ki", "value": 13, "unit": "nM"}]}
{"molecule": "CC(O)c1cnc(N2CCn3c(nc4cc(CO)c(S(C)(=O)=O)cc43)[C@@H]2C(C)C)nc1C(F)(F)F", "note": "(single isomer, unassigned) [Compound E8a, 1-(2-(8-(hydroxymethyl)-1-isopropyl-7-(methylsulfonyl)-3,4-dihydrobenzo[4,5]imidazo[1,2-a]pyrazin-2(1H)-yl)-4-(trifluoromethyl)pyrimidin-5-yl)ethanol]", "values": [{"measurement": "Ki", "value": 1650, "unit": "nM"}]}
